Laboratory results taken from PMC6979384, “Characterization of the plant homeodomain (PHD) reader family for their histone tail interactions” (Epigenetics & Chromatin, 2020).

Key:
Assay in all cases: Histone peptide microarray
Format in all cases: binding, human
KDM5B (1) = settings: sheet "Array Heatmap"; GST-tagged KDM5B (1); arrays performed twice, total replicate number n = 4
From the text: (§1) To more comprehensively define the histone interactions of the 31 PHD readers identified from the domain microarray analyses, we probed each on an alternate microarray platform containing a library of 293 synthetic histone peptides with single or combinatorial PTMs (Additional file 2: Figure S4 and Additional file 3: Table S2).
(§2) The 31 GST-tagged PHD readers identified in the PHD finger domain array were expressed and purified as previously. Histone peptide arrays and peptide pulldown assays were conducted as recently described (specifically, the optimized protocol from Petell et al. for the former).
Supplementary file 13072_2020_328_MOESM3_ESM.xlsx: Additional file 3: Table S2. […] Excel Tab Peptide List is a compiled list of the entire 293 histone peptide library with amino acid sequence ranges. […] Each number corresponds to the peptide number designated in Peptide List. Excel Tab Average Signals is a compiled set of binding data: chromatin reader at 0.5 μM vs. entire 293 peptide library. Data is presented as the average and standard deviation of 4 replicates. The average signals are colored to indicate signal intensity with green being strong and white being weak/low. […] Key: red= stronger relative binding; blue = weaker relative binding. Excel Tab Array info summary is a table summarizing the domains, sequence coverage, array signal range, and noise for each of the GST-tagged readers assayed on the peptide microarrays.

KDM4C (TTP) = settings: sheet "Array Heatmap"; GST-tagged KDM4C (TTP); arrays performed twice, total replicate number n = 4
From the text: as §1, with “S2). […] In general, the 31 PHD fingers were confirmed to associate with the H3 tail with the same H3K4 methyl preferences as in the domain microarrays (Fig. 2; Additional file 3: Table S2). […] In addition, we confirmed the newly identified interactions observed with the domain microarrays for PHRF1 and TRIM66 (Fig. 2).” for “S2).”
as §2
(§3) Supplementary file 13072_2020_328_MOESM3_ESM.xlsx: Additional file 3: Table S2. Histone Peptide Microarray Results. Excel Tab Peptide List is a compiled list of the entire 293 histone peptide library with amino acid sequence ranges. Excel Tab Peptide Array Grid Map is a table representing the pattern in which peptides have been printed for the peptide microarray. Each number corresponds to the peptide number designated in Peptide List. Excel Tab Average Signals is a compiled set of binding data: chromatin reader at 0.5 μM vs. entire 293 peptide library. Data is presented as the average and standard deviation of 4 replicates. The average signals are colored to indicate signal intensity with green being strong and white being weak/low. […] Key: red= stronger relative binding; blue = weaker relative binding. Excel Tab Array info summary is a table summarizing the domains, sequence coverage, array signal range, and noise for each of the GST-tagged readers assayed on the peptide microarrays.

MORC3 (CW) = settings: sheet "Array Heatmap"; GST-tagged MORC3 (CW); arrays performed twice, total replicate number n = 4
From the text: as §1, with “S2). […] In general, the 31 PHD fingers were confirmed to associate with the H3 tail with the same H3K4 methyl preferences as in the domain microarrays (Fig. 2; Additional file 3: Table S2). […] In addition, we confirmed the newly identified interactions observed with the domain microarrays for PHRF1 and TRIM66 (Fig. 2).” for “S2).”
as §2, §3

ING1 = settings: sheet "Array Heatmap"; GST-tagged ING1; arrays performed twice, total replicate number n = 4
From the text: as §1, with “S2). […] In general, the 31 PHD fingers were confirmed to associate with the H3 tail with the same H3K4 methyl preferences as in the domain microarrays (Fig. 2; Additional file 3: Table S2). […] In addition, we confirmed the newly identified interactions observed with the domain microarrays for PHRF1 and TRIM66 (Fig. 2).” for “S2).”
as §2, §3

PHF23 = settings: sheet "Array Heatmap"; GST-tagged PHF23; arrays performed twice, total replicate number n = 4
From the text: as §1, with “S2). […] In general, the 31 PHD fingers were confirmed to associate with the H3 tail with the same H3K4 methyl preferences as in the domain microarrays (Fig. 2; Additional file 3: Table S2). […] In addition, we confirmed the newly identified interactions observed with the domain microarrays for PHRF1 and TRIM66 (Fig. 2).” for “S2).”
as §2, §3

BAZ2B = settings: sheet "Array Heatmap"; GST-tagged BAZ2B; arrays performed twice, total replicate number n = 4
From the text: as §1, with “S2). […] In general, the 31 PHD fingers were confirmed to associate with the H3 tail with the same H3K4 methyl preferences as in the domain microarrays (Fig. 2; Additional file 3: Table S2). […] In addition, we confirmed the newly identified interactions observed with the domain microarrays for PHRF1 and TRIM66 (Fig. 2).” for “S2).”
as §2, §3

DIDO1 = settings: sheet "Array Heatmap"; GST-tagged DIDO1; arrays performed twice, total replicate number n = 4
From the text: as §1, with “S2). […] In general, the 31 PHD fingers were confirmed to associate with the H3 tail with the same H3K4 methyl preferences as in the domain microarrays (Fig. 2; Additional file 3: Table S2). […] In addition, we confirmed the newly identified interactions observed with the domain microarrays for PHRF1 and TRIM66 (Fig. 2).” for “S2).”
as §2, §3

PHF8 = settings: sheet "Array Heatmap"; GST-tagged PHF8; arrays performed twice, total replicate number n = 4
From the text: as §1, with “S2). […] In general, the 31 PHD fingers were confirmed to associate with the H3 tail with the same H3K4 methyl preferences as in the domain microarrays (Fig. 2; Additional file 3: Table S2). […] In addition, we confirmed the newly identified interactions observed with the domain microarrays for PHRF1 and TRIM66 (Fig. 2).” for “S2).”
as §2, §3

SP140L = settings: sheet "Array Heatmap"; GST-tagged SP140L; arrays performed twice, total replicate number n = 4
From the text: as §1, with “S2). […] In general, the 31 PHD fingers were confirmed to associate with the H3 tail with the same H3K4 methyl preferences as in the domain microarrays (Fig. 2; Additional file 3: Table S2). […] In addition, we confirmed the newly identified interactions observed with the domain microarrays for PHRF1 and TRIM66 (Fig. 2).” for “S2).”
as §2, §3

ING2 = settings: sheet "Array Heatmap"; GST-tagged ING2; arrays performed twice, total replicate number n = 4
From the text: as §1, with “S2). […] In general, the 31 PHD fingers were confirmed to associate with the H3 tail with the same H3K4 methyl preferences as in the domain microarrays (Fig. 2; Additional file 3: Table S2). […] In addition, we confirmed the newly identified interactions observed with the domain microarrays for PHRF1 and TRIM66 (Fig. 2).” for “S2).”
as §2, §3

PHF21A = settings: sheet "Array Heatmap"; GST-tagged PHF21A; arrays performed twice, total replicate number n = 4
From the text: as §1, with “S2). […] In general, the 31 PHD fingers were confirmed to associate with the H3 tail with the same H3K4 methyl preferences as in the domain microarrays (Fig. 2; Additional file 3: Table S2). […] In addition, we confirmed the newly identified interactions observed with the domain microarrays for PHRF1 and TRIM66 (Fig. 2).” for “S2).”
as §2, §3

KDM5B (3) = settings: sheet "Array Heatmap"; GST-tagged KDM5B (3); arrays performed twice, total replicate number n = 4
From the text: as §1, with “S2). […] In general, the 31 PHD fingers were confirmed to associate with the H3 tail with the same H3K4 methyl preferences as in the domain microarrays (Fig. 2; Additional file 3: Table S2). […] In addition, we confirmed the newly identified interactions observed with the domain microarrays for PHRF1 and TRIM66 (Fig. 2).” for “S2).”
as §2, §3

KDM7A = settings: sheet "Array Heatmap"; GST-tagged KDM7A; arrays performed twice, total replicate number n = 4
From the text: as §1, with “S2). […] In general, the 31 PHD fingers were confirmed to associate with the H3 tail with the same H3K4 methyl preferences as in the domain microarrays (Fig. 2; Additional file 3: Table S2). […] In addition, we confirmed the newly identified interactions observed with the domain microarrays for PHRF1 and TRIM66 (Fig. 2).” for “S2).”
as §2, §3

PHF13 = settings: sheet "Array Heatmap"; GST-tagged PHF13; arrays performed twice, total replicate number n = 4
From the text: as §1, with “S2). […] In general, the 31 PHD fingers were confirmed to associate with the H3 tail with the same H3K4 methyl preferences as in the domain microarrays (Fig. 2; Additional file 3: Table S2). […] In addition, we confirmed the newly identified interactions observed with the domain microarrays for PHRF1 and TRIM66 (Fig. 2).” for “S2).”
as §2, §3

BPTF (PB) = settings: sheet "Array Heatmap"; GST-tagged BPTF (PB); arrays performed twice, total replicate number n = 4
From the text: as §1, with “S2). […] In general, the 31 PHD fingers were confirmed to associate with the H3 tail with the same H3K4 methyl preferences as in the domain microarrays (Fig. 2; Additional file 3: Table S2). […] In addition, we confirmed the newly identified interactions observed with the domain microarrays for PHRF1 and TRIM66 (Fig. 2).” for “S2).”
as §2, §3

## H3K9me2 (1-15): H3 1-15
KDM5B (1)
  Array Heatmap signal, KDM5B (1): 0.6602
KDM4C (TTP)
  Array Heatmap signal, KDM4C (TTP): 0.4574
MORC3 (CW)
  Array Heatmap signal, MORC3 (CW): 0.4062
ING1
  Array Heatmap signal, ING1: 0.508
PHF23
  Array Heatmap signal, PHF23: 0.5145
BAZ2B
  Array Heatmap signal, BAZ2B: 0.4489
DIDO1
  Array Heatmap signal, DIDO1: 0.631
PHF8
  Array Heatmap signal, PHF8: 0.3238
SP140L
  Array Heatmap signal, SP140L: 0.3335
ING2
  Array Heatmap signal, ING2: 0.5906
PHF21A
  Array Heatmap signal, PHF21A: 0.4644
KDM5B (3)
  Array Heatmap signal, KDM5B (3): 0.4439
KDM7A
  Array Heatmap signal, KDM7A: 0.3229
PHF13
  Array Heatmap signal, PHF13: 0.6111
BPTF (PB)
  Array Heatmap signal, BPTF (PB): 0.344
